A549 viability = kills or reduces viability of A549 cells in Nrf2 counter-screen. A549 ARE-Fluc cells, CellTiter-Fluor viability, 18-24 h. actives 0.16% (n = 390,000). Potency, µM (top dose mostly 46 µM), usual class: inhibitors
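A549 ARE_Fluc cells in 5% FBS OPTI-MEM were exposed to compounds in concentration-response for 18-24 h at 37 deg C. Viability was read by CellTiter-Fluor fluorescence (Ex 405/Em 525) after 30 min, before the luciferase read.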
Nrf2 block = blocks Nrf2 signaling; actives 2.1% (n = 360,000); A549 ARE-Fluc reporter, luciferase luminescence, 18-24 h; Potency, µM (top dose mostly 46 µM), hits mostly inhibitors; further: nearly all actives have a fitted effect of over 60% in size
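Concentration-response testing used A549 ARE_Fluc cells at 5000 cells/well. Following an 18-24 h compound incubation, viability was read by fluorescence (Ex 405/Em 525) and luciferase output by luminescence.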
p53 reactivator = re-activators of mutant p53 | H1299 p53-A138V BP100-luciferase reporter, luminescence, 24 h | Potency, µM (top dose mostly 92.2 µM), usual class: activators | actives 0.063% (n = 320,000); further: nearly all actives have a fitted effect of over 45% in size
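p53-null H1299 cells stably carrying temperature-sensitive p53-A138V and a BP100-luciferase reporter were pinned with compounds (4-point, 1:5 series) and held 24 hrs at 37 deg C. Luminescence was read 10 min after detection reagent.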
Nrf2 ARE act = activates Nrf2 signaling; AREc32 ARE-luciferase reporter (MCF7-derived line), luminescence, 24 h; Potency, µM (top dose mostly 46.1 µM), usual class: activators; actives 0.31% (n = 410,000); AID 624171; further: nearly all actives have a fitted effect of over 65% in size
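Steps: seed AREc32_Fluc cells (1000/well, 5% FBS OPTI-MEM); incubate overnight at 37 deg C; add 23 nL compound; incubate 24 hr; add Steady-Glo; hold 30 min RT; read luminescence.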
miR-21 FLuc = miR-21 reporter, rising signal; HeLa miR-21 FLuc reporter, luciferase, 48 h; Potency, µM (doses to about 38.3 µM); 340,000 tested, under 10 active; AID 2288; active = well fitted rising curve with a large enough effect; inconclusive = small, poorly fitted or top-dose-only effect; inactive = no such curve, though single readings can be large or run the other way;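 further: miR-21 action dims this reporter so a rising signal means less miR-21 action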
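HeLa cells stably expressing CMV-driven firefly luciferase with a downstream miR-21 binding sequence, endogenously expressing miR-21, were treated with titrations (up to about 40uM final) for 48 hours at 37 degree Celsius. Luciferase luminescence was read after lysis.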
ClpP mod = qHTS Assay for Activators of ClpP; purified B. subtilis ClpP, FRET peptide cleavage, 20 min; Potency, µM (titrated, usually from 57.5 µM); actives 1.9% (n = 340,000); AID 651965, 2013; active means well fitted falling curve with a large enough effect; inconclusive means small, poorly fitted or top-dose-only effect; inactive means no such curve, though single readings can be large or run the other way; further: the source files actives as falling curves though it sought activators and does not explain the sign; nearly all actives have a fitted effect of over 65% in size
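FRET quenching reversal measured ClpP activation: 10 microg/mL B. subtilis ClpP at pH 8 with the FRET-FV decapeptide, read at 430 nm after 320 nm excitation. The 20-min minus 0-min signal was scaled between DMSO/no-enzyme wells and ADEP (5.8 microM final).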
Numbers stand for hits; ! = repeats disagree; [ ] = another dose, or the depositor's remark. Compounds with a hit are over-represented: about 3.7% of the library has one in this group of screens. Unless noted, the call rests on the fitted dose curve; in most records, active means well fitted curve in the direction sought with a large enough effect; inconclusive means small, poorly fitted or top-dose-only effect, or another doubt; inactive means no such curve, though single readings can be large; an effect the other way counts as inactive or inconclusive.

Screening O=C1c2ccccc2CC1Sc1nnc(-c2ccccn2)o1 (stereo not given) returned A549 viability inactive, Nrf2 block inconclusive, p53 reactivator inactive, Nrf2 ARE act 12.6µM, miR-21 FLuc inactive and ClpP mod inactive.
For O=C(c1nc(-c2ccc(Cl)cc2)n2c1CCCCC2)N1CCN(c2ccc(F)cc2)CC1 the results were A549 viability inconclusive, Nrf2 block inactive, Nrf2 ARE act inactive, miR-21 FLuc inactive and ClpP mod inactive.
For Cc1ccccc1N1CC(c2nnc(NC(=O)c3ccco3)s2)CC1=O (stereo not given) the results were A549 viability inactive, Nrf2 block inactive, Nrf2 ARE act inactive, miR-21 FLuc inactive and ClpP mod inactive.
Screening C[n+]1ccc(/C=N/Nc2nc(Cl)c(C#N)c(Cl)c2Cl)cc1 returned A549 viability inactive, Nrf2 block inactive, p53 reactivator inactive, Nrf2 ARE act 12.6µM, miR-21 FLuc inactive and ClpP mod inactive.
Cc1ccc(C=C2C=C(c3ccccc3)OC2=O)cc1 was read as Nrf2 ARE act inactive and ClpP mod inactive.
`Cc1ccccc1C=O` gave A549 viability inactive, Nrf2 block inactive, p53 reactivator inactive, Nrf2 ARE act inactive and ClpP mod inactive.
Cc1ccccc1/C=C1\OC(=O)c2ccccc21 was read as A549 viability inactive, p53 reactivator inactive, Nrf2 ARE act inactive, miR-21 FLuc inactive and ClpP mod 28.2µM.
For Cc1ccc(/C=C2\OC(=O)c3ccccc32)cc1 the results were A549 viability inactive, Nrf2 block inconclusive, p53 reactivator inconclusive, Nrf2 ARE act inactive, miR-21 FLuc inactive and ClpP mod 28.2µM.
NCCCNc1ncnc2ccc(-c3ccc4c(c3)OCO4)cc12 was read as A549 viability inactive and Nrf2 block inactive.
For CCCN(CCC)c1ccc(/C=C/c2sc3ccccc3[n+]2CCCCI)cc1 the results were ClpP mod inactive.
`Cc1cccc(C)c1NC(=O)CN1C(=O)C2CC=CCC2C1=O` (stereo not given) gave A549 viability inactive, Nrf2 block inactive, p53 reactivator inactive, Nrf2 ARE act inactive and ClpP mod inactive.
Screening CN(C)c1cccc(C(=O)NNC(=O)CN2C(=O)C3CC=CCC3C2=O)c1 (stereo not given) returned A549 viability inactive, Nrf2 block inconclusive, p53 reactivator 44.7µM and Nrf2 ARE act inactive.
For COc1cc(OC)cc(-c2nc3n(n2)C(c2ccccc2)C(C(N)=O)=C(C)N3)c1 (stereo not given) the results were A549 viability inactive, Nrf2 block inactive, Nrf2 ARE act inactive, miR-21 FLuc inactive and ClpP mod inactive.
Cc1cccc(NS(=O)(=O)c2ccc3oc(=O)c4ncn(C)c4c3c2)c1C was read as A549 viability inactive, Nrf2 block inactive, Nrf2 ARE act inactive, miR-21 FLuc inactive and ClpP mod inactive.
COc1ccc(-n2sc3c(c2=S)-c2cc(OC)ccc2NC3(C)C)cc1 was read as A549 viability inactive, Nrf2 block 20.6µM, p53 reactivator inactive, Nrf2 ARE act inactive, miR-21 FLuc inactive and ClpP mod inactive.
For Cc1nc2nc(C)c(CCC(=O)NCc3ccccc3)c(C)n2n1 the results were A549 viability inactive, Nrf2 block inactive, Nrf2 ARE act inactive, miR-21 FLuc inactive and ClpP mod inactive.
Screening CC1CCC(C(C)C)C(OC(=O)Cn2c(-c3ccc(Br)cc3)[n+](C)c3ccccc32)C1 (stereo not given) returned A549 viability inconclusive, Nrf2 block 20.6µM, p53 reactivator inactive, Nrf2 ARE act inactive, miR-21 FLuc inconclusive and ClpP mod inactive.
Screening CC1CCC(C(C)C)C(OC(=O)Cn2c(-c3ccc(Cl)cc3)[n+](C)c3ccccc32)C1 (stereo not given) returned A549 viability inconclusive, Nrf2 block inconclusive, p53 reactivator inactive, Nrf2 ARE act inactive, miR-21 FLuc inconclusive and ClpP mod inactive.
For Cc1ccccc1OCc1n(CC(=O)OC2CC(C)CCC2C(C)C)c2ccccc2[n+]1C (stereo not given) the results were A549 viability inactive, Nrf2 block 18.4µM!, p53 reactivator inactive, Nrf2 ARE act inactive, miR-21 FLuc inconclusive and ClpP mod inactive.
For CCCCCCCCCCOC(=O)Cn1c(COc2ccccc2C)[n+](C)c2ccccc21 the results were A549 viability inconclusive, Nrf2 block inconclusive, Nrf2 ARE act inactive and miR-21 FLuc inconclusive.
Screening Cc1ccccc1CN1C(=O)c2ccccc2Sc2ccc(C(=O)NCc3ccccc3)cc21 returned A549 viability inactive, Nrf2 ARE act inactive, miR-21 FLuc inactive and ClpP mod inactive.
`O=C(CC1N=C2c3ccccc3N=C(SCc3ccccc3Cl)N2C1=O)NCCc1ccccc1` (stereo not given) gave A549 viability inactive, Nrf2 ARE act inactive, miR-21 FLuc inactive and ClpP mod inactive.
Screening Cn1cc(S(=O)(=O)N2CCCCCC2)cc1C(=O)NCc1ccccc1Cl returned A549 viability inactive, Nrf2 ARE act inactive, miR-21 FLuc inactive and ClpP mod inactive.
Cc1ccc(O)c(C(=O)c2cnn(C(=O)COc3ccc(Cl)cc3)c2)c1 was read as A549 viability inactive, Nrf2 block inactive, p53 reactivator inactive, Nrf2 ARE act inactive, miR-21 FLuc inactive and ClpP mod 15.8µM.
For Cc1ccccc1-c1cc(C(=O)NCc2ccc(OC(F)(F)F)cc2)n(CC2CC(c3cccnc3)=NO2)n1 (stereo not given) the results were A549 viability inactive, Nrf2 block 20.6µM, p53 reactivator inactive, Nrf2 ARE act inactive and ClpP mod inactive.
For Cc1occc1C(=O)N/N=C/C(Br)=C/c1ccccc1 the results were A549 viability inactive, Nrf2 block inconclusive, p53 reactivator inactive, Nrf2 ARE act 15.8µM and miR-21 FLuc inactive.
COc1ccc(C(=O)N/N=C/C(Br)=C/c2ccccc2)cc1 was read as A549 viability inactive, Nrf2 block inactive, p53 reactivator inconclusive, Nrf2 ARE act 15.8µM, miR-21 FLuc inactive and ClpP mod inactive.
Screening Cc1ccc(-c2cc(C(=O)N/N=C/c3ccccc3O)n[nH]2)o1 returned A549 viability inactive, Nrf2 block inactive, p53 reactivator inactive, Nrf2 ARE act inactive and miR-21 FLuc inactive.
O=C(N/N=C/C(Br)=C\c1ccccc1)c1n[nH]c2c1CCC2 was read as A549 viability inactive[1.84 µM], Nrf2 block inconclusive, p53 reactivator inconclusive, Nrf2 ARE act 14.1µM, miR-21 FLuc inactive and ClpP mod inactive.
Screening Cc1ccc(-c2cc(C(=O)N/N=C/C(Br)=C/c3ccccc3)n[nH]2)o1 returned A549 viability inactive, Nrf2 block inconclusive, p53 reactivator inactive, Nrf2 ARE act 20µM and miR-21 FLuc inactive.

Assay outcomes (PubChem)
